The values that follow come from patent US11357760B2, “Method of treating liver fibrosis” (ChemoCentryx, Inc., priority 2016, dated 2022).

The chains behind the UniProt entries cited, without tags or fusion partners.
UniProt P51681, whole entry, species assumed: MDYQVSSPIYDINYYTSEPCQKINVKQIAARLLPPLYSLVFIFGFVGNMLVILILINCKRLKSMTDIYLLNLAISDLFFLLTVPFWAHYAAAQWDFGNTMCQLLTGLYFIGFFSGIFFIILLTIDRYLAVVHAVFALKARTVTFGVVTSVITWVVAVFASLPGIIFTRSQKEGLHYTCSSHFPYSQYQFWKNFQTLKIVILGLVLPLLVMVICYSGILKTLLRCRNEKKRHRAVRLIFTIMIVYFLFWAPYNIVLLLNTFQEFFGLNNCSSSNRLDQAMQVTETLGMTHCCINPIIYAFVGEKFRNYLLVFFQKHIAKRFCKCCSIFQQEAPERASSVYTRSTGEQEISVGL

Test [1] deals with T1, CCR5 (Homo sapiens, UniProt P51681). Nature of the test: cell-based.
In test [2] the target is T1, CCR5. As to conditions: summary of Table 1.

In general, IC50 refers to the midpoint of a concentration-inhibition curve. A high value points to weaker potency in that assay. For `Cc1cnc(C(=O)c2ccnc3[nH]ccc23)c(NS(=O)(=O)c2ccc(Cl)c(C(F)(F)F)c2)c1` [Compound 1], in test [1], the IC50 was above 5 µM. Further, the “CCR5 inhibition (in words)” value in test [2] is listed as “do not inhibit”.
For the molecule `Cc1cnc(C(=O)c2ncnc3[nH]ccc23)c(NS(=O)(=O)c2ccc(Cl)c(C(F)(F)F)c2)c1` [Compound 2], in test [2], the “CCR5 inhibition (in words)” value is reported as “do not inhibit”.
Still for that read-out and setting: for `O=C(c1ncc(Cl)cc1NS(=O)(=O)c1ccc(Cl)c(C(F)(F)F)c1)c1ccnc2[nH]ccc12` [Compound 3] the value was “do not inhibit”.
